Data reported in ChEMBL document CHEMBL2034878, “Chiral resolution, absolute configuration assignment and biological activity of racemic diarylpyrimidine CH(OH)-DAPY as potent nonnucleoside HIV-1 reverse transcriptase inhibitors” (Eur J Med Chem, 2012).

Target: Human immunodeficiency virus type 1 reverse transcriptase (Human immunodeficiency virus 1, UniProt Q72547)
Assay: Inhibition of HIV1 wildtype reverse transcriptase using poly(rA)/oligo(dT)15 as template by colometric streptavidin alkaline phosphate reporter assay

`Cc1cc(C#N)cc(C)c1Oc1nc(Nc2ccc(C#N)cc2)nc(N)c1Br` [ETRAVIRINE] was tested, and the IC50 was 980 nM.
